From ChEMBL document CHEMBL5137121, “Spiroisoxazoline Inhibitors of Acetylcholinesterase from Pseudoceratina verrucosa. Quantitative Chiroptical Analysis of Configurational Heterogeneity, and Total Synthesis of (±)-Methyl Purpuroceratate C” (J Nat Prod, 2022)

Assay: Selectivity index, ratio of IC50 for horse BuChE to IC50 for electric eel AChE

Row | SMILES | Ratio IC50
1 | COc1ccc(C/C(=N\O)C(=O)NCCc2cc(Br)c(OCCCN(C)C)c(Br)c2)cc1Br | 2.2
2 | CNCCCOc1c(Br)cc(CCNC(=O)/C(Cc2ccc(OC)c(Br)c2)=N/O)cc1Br | 0.5
3 | COc1c(Br)cc(C/C(=N\O)C(=O)NCCc2nc(N)[nH]c2C(O)(Cc2cc(Br)c(OC)c(Br)c2)C(=O)NCCc2cnc(N)[nH]2)cc1Br (stereo not drawn) | < 0.14
